Laboratory results from patent US9624269B2, “Peptide inhibitors of BACE1” (GENENTECH, INC., priority 2011, dated 2017).

Sequences of proteins named here, by UniProt entry; tags and fusion partners are left off. Residues count along the entry.
UniProt P56817, 22-457: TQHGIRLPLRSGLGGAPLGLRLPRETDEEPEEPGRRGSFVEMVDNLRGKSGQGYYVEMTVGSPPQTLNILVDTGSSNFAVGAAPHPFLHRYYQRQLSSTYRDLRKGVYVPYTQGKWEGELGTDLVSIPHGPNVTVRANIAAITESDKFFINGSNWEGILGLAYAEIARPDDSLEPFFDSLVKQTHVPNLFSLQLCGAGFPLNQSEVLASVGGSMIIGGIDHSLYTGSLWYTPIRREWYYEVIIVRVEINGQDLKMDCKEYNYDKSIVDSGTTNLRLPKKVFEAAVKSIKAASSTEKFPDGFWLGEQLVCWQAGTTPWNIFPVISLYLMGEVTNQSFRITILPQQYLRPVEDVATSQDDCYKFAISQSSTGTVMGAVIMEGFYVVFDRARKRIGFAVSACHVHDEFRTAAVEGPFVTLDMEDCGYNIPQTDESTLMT

Molecular target: BACE1 (Homo sapiens, UniProt P56817)
Assay: Biotinylated BACE020 competition binding ELISA
Parameters: extracellular domain (ECD) (residues 22-457) and a C-terminal His8 tag; made in house; host or cells: Chinese hamster ovary cells (transient)
Details: concentration dependent addition of competitor
Description: Competition binding ELISA experiments were carried out using biotinylated BACE020 and a concentration dependent addition of BACE020, 0M99-2 or BMS1 peptides.
Binding of biotinylated BACE020 to recombinant protein was determined by a 96-well plate assay. Maxisorp microtiter plates (Nalge Nunc International, Rochester, N.Y.) were coated overnight at 4° C. with 2 μg/ml BACE 1 mutant in 50 mM carbonate, pH 9.6. The coated wells were washed with buffer (PBS, 0.05% Polysorbate 20) and blocked with assay buffer (PBS, pH 7.4, 0.5% BSA, 0.05% Tween 20, 15 ppm Proclin) for 1 h at room temperature with gentle shaking. […] After washing, the amount of peptide bound to the plate was detected by the addition of Streptavidin-Horseradish Peroxidase Conjugate (GE Healthcare, Piscataway, N.J.) followed by the addition of TMB/H2O2 substrate (KPL, Gaithersburg, Md.). The reaction was quenched with 1 M phosphoric acid and the A450 measured on a Molecular Devices SpectraMax Plus384 microplate reader. Concentrations to give half maximal effective concentration (EC50) were determined using a 4-parameter non-linear regression curve-fitting program with Kaleidagraph (Synergy Software, Reading, Pa.). […] Concentrations to give half maximal inhibition concentration (IC50) were determined using a 4-parameter non-linear regression curve-fitting program with Kaleidagraph.

OM99-2 [reference compound]
Competition for binding of biotinylated BACE020 to BACE1: did compete
